In patent US20220017471A1, “FUNCTIONALITY INDEPENDENT LABELING OF ORGANIC COMPOUNDS” (Shanghai Tech University, priority 2018, published 2022):
pIC50: −log10 of the molar value.

Sequences of proteins named here, by UniProt entry; tags and fusion partners are left off.
UniProt P09874, whole entry: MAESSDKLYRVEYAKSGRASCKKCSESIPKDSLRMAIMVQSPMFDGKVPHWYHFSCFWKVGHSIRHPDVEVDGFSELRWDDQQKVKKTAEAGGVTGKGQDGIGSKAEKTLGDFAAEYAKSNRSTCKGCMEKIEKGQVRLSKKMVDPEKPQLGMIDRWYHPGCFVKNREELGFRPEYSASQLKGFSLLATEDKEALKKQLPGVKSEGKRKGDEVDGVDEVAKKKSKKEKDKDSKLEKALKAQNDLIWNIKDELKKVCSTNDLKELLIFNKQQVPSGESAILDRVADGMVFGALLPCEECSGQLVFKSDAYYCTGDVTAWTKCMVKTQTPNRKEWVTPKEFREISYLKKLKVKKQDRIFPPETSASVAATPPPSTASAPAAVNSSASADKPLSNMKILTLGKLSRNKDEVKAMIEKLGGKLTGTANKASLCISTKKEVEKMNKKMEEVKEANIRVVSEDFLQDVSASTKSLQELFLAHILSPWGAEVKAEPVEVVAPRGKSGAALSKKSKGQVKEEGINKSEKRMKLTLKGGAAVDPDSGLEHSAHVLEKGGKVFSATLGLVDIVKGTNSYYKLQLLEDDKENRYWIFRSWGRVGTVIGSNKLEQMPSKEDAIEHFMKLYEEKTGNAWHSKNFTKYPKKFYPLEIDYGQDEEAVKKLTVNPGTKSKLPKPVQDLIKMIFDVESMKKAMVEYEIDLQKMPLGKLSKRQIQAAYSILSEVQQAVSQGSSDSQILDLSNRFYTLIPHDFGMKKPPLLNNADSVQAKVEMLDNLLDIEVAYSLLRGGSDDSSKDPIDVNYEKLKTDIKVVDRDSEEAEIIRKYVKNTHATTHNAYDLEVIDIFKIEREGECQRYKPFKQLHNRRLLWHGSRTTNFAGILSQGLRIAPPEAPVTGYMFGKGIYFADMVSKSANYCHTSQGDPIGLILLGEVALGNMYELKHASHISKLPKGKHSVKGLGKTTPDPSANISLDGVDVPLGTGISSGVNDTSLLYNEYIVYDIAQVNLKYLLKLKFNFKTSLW

Tests used:
[1] = molecular target: poly [ADP-ribose] polymerase 1 (PARP1) (Homo sapiens, UniProt P09874); assay: nDEL affinity selection against PARP-1 (enrichment fold by deep sequencing); format: binding; settings: ratio of normalized sequencing counts in presence and absence of target protein; DNA-encoded compound
human PARP1 = human PARP1 (Homo sapiens, UniProt P09874); assay: PARP-1 autoribosylation based enzymatic assay (chemiluminescence); format: biochemical; settings: read-out: PARP-1 inhibition IC50; auto-ribosylation assay, FIG. 22(b)

Fold Change, enrichment folds for PARP-1 binder selection [1]: 2.34 | pIC50 (human PARP1): 8.60
Structure (SMILES): O=C(Cc1cccc(O)c1)N1CCN(C(=O)c2cc(Cc3n[nH]c(=O)c4ccccc34)ccc2F)CC1
